Legend:
MCh response = test: Rat Einthoven assay (bronchoprotection); conditions: inhalation, 100 μg dose, measured at 24 hours
[1] = biological target: hM3 muscarinic receptor subtype (Homo sapiens, UniProt P20309); test: Radioligand binding assay, [3H]-NMS displacement; conditions: read-out: Ki for the M3 muscarinic receptor subtype (hM3 Ki); CHO cell membranes, [3H]-NMS at 1 nM, measured at 6 hours, 37° C.

The chains behind the UniProt entries cited, without tags or fusion partners.
UniProt P20309, whole entry, looked up: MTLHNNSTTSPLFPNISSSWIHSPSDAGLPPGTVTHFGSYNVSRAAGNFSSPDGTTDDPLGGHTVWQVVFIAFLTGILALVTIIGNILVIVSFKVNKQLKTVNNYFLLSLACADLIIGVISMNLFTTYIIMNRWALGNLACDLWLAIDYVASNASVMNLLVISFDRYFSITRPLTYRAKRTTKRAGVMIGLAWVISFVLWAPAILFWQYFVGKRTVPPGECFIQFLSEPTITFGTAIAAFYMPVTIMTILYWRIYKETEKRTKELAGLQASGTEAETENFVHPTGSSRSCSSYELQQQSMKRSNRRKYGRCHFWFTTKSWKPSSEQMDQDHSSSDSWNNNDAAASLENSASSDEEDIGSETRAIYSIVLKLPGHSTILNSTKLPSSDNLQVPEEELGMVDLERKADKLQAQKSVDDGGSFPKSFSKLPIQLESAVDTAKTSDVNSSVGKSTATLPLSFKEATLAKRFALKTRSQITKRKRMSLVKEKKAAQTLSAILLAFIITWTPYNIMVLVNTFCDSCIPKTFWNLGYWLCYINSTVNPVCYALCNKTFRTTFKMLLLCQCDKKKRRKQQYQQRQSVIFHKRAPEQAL

| Structure (SMILES) | % inhibition of MCh response relative to control animals (MCh response) [%] | Ki [1] [nM] |
| --- | --- | --- |
| C[N+](C)(CCc1ccc(O)cc1)C1CCN(C(=O)C(O)(c2ccccc2)C2CCCC2)CC1 (stereo not drawn) | 76 | 0.74 |
| O=C(N1CCC(NCCc2ccc(O)cc2)CC1)C(O)(c1ccccc1)C1CCCC1 (stereo not drawn) | −6 | 0.42 |
| CN(CCc1ccc(O)cc1)C1CCN(C(=O)C(O)(c2ccccc2)C2CCCC2)CC1 (stereo not drawn) | −18 | 0.38 |

— patent publication US9216971B2 (priority 2007, dated 2015)
